Experimental data: PubChem BioAssay AID540317 (National Center for Advancing Translational Sciences (NCATS), 2011)
Only a part is listed here, and it is no random draw. Inconclusive results are not listed. Calls of active or inactive are those of the source. Calls come from the whole dose curve; as a rule, active = well fitted inhibition curve with a large enough effect; inconclusive = small, poorly fitted or top-dose-only effect; inactive = no such curve, though single readings can be large or run the other way.

Protein sequences, listed by entry. Tags and fused reporters are not part of them.
UniProt P83916, whole entry: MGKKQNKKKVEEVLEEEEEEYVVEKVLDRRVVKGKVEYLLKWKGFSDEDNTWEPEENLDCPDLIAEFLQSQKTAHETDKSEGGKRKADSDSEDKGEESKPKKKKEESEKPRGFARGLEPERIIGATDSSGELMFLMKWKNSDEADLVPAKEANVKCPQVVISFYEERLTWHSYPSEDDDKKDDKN

Target: Chromobox protein homolog 1 (Homo sapiens) (UniProt P83916)
Assay: HTS for Inhibitors of HP1-beta Chromodomain Interactions with Methylated Histone Tails; note: nearly all actives have a fitted effect of over 70% in size
Settings: AlphaScreen HP1-beta / biotin-H3K9me3 peptide binding; at 114 µM (top of the series)

Compound | activity change, negative = inhibition
O=C(NCC1(N2CCOCC2)CCCCC1)c1ccccc1 | inactive: 41.1%
Cc1cc(N(CCCl)CCCl)ccc1C=O | inactive: 59.9%
CCCN1CCC(Nc2cc(OC)cc(OC)c2)CC1 | inactive: 10.8%
c1ccc(CN2CCC(Nc3ccccc3)CC2)cc1 | inactive: 55.3%
CN(C)C1(CNC(=O)c2cccc(C#N)c2)CCCCC1 | inactive: 19.1%
CCOC(=O)C(CC)C1=NC(C)(C)Cc2ccccc21.O=[N+]([O-])c1cc([N+](=O)[O-])c(O)c([N+](=O)[O-])c1 (stereo not given) | inactive: 29.4%
O=C(NCC1(N2CCOCC2)CCCCC1)c1ccc([N+](=O)[O-])cc1 | inactive: 1.81%
CC(C)(C)OC(=O)N1CCC(N(C(=O)c2ccccc2)c2ccc(Cl)cc2)CC1 | inactive: 29%
N#Cc1ccc(C(=O)NCC2(N3CCCCC3)CCCCC2)cc1 | inactive: 27.3%
O=C(NCC1(N2CCOCC2)CCCCC1)c1ccccc1[N+](=O)[O-] | inactive: 39.5%
O=C(O)c1cccc(Nc2c([N+](=O)[O-])cc([N+](=O)[O-])cc2[N+](=O)[O-])c1 | inactive: 46.6%
O=C(OC1CN2CCC1CC2)C1c2ccccc2C=Cc2ccccc21 (stereo not given) | inactive: 27.5%
CCc1cc(C(=O)NCC2(N3CCCCC3)CCCCC2)sc1C | inactive: 21.8%
N/C(=N\O)c1c(N)no[n+]1[O-] | inactive: 22.1%
CCOC(=O)N1CCC(Nc2ccc(C)cc2)CC1 | inactive: 4.73%
COc1ccc(C(=O)NCC2(N3CCOCC3)CCCCC2)cc1OC | inactive: 26.6%
O=C(NCC1(N2CCOCC2)CCCCC1)c1cc(Br)ccc1Cl | inactive: 82.9%
COc1cc(C(=O)NCC2(N3CCOCC3)CCCCC2)cc(OC)c1C | inactive: 3.16%
CN1CCC(Nc2ccc(Cl)cc2)CC1 | inactive: 13.7%
CCC(CO)(C(=O)OC1CN2CCC1CC2)c1ccccc1 (stereo not given) | inactive: 17.4%
COc1cc(OC)cc(C(=O)NCC2(N3CCOCC3)CCCCC2)c1 | inactive: 33.4%
COc1cc(C(=O)NCC2(N3CCOCC3)CCCCC2)cc(OC)c1OC | inactive: 33.8%
COc1cccc(C(=O)N(c2cc(C)cc(C)c2)C2CCN(C(=O)OC(C)(C)C)CC2)c1 | inactive: 11.5%

Compound | activity change, negative = inhibition
CCCOc1ccc(C(=O)NCC2(N(C)C)CCCCC2)cc1 | inactive: 25.2%
O=C(O)C1(Nc2ccccc2)CCN(Cc2ccccc2)CC1 | inactive: 5.32%
CC(C)(C)OC(=O)N1CCC(Nc2ccccc2)CC1 | inactive: 18.3%
CN1CCC(Nc2ccc(F)c(Cl)c2)CC1 | inactive: 15.5%
CCOc1ncccc1C(=O)NCC1(N2CCOCC2)CCCCC1 | inactive: 21.9%
Cn1c(=O)[nH]cc(N(CCCl)CCCl)c1=O | inactive: 39.8%
CC(C)(C)c1ccc(C(=O)NCC2(N3CCOCC3)CCCCC2)cc1 | inactive: 39.4%
O=C(NCC1(N2CCCCC2)CCCCC1)c1ccco1 | inactive: 29.8%
Cc1ccccc1C(=O)NCC1(N(C)C)CCCCC1 | inactive: 23.1%
Cc1ccccc1NC1(C#N)CCN(Cc2ccccc2)CC1 | inactive: 34.4%
Cc1ccc(NC2(C#N)CCN(Cc3ccccc3)CC2)cc1 | inactive: 16.8%
Fc1ccccc1NC1CCN(Cc2ccccc2)CC1 | inactive: -11.5%
Cc1ccc(C(=O)NCC2(N3CCCCC3)CCCCC2)o1 | inactive: 19.9%
COc1cc(OC)cc(C(=O)NCC2(N3CCCCC3)CCCCC2)c1 | inactive: -10.7%
CC(=O)N(c1ccccc1)C1CCNCC1 | inactive: 15.1%
CN(C)C1(CNC(=O)c2ccc(C(C)(C)C)cc2)CCCCC1 | inactive: 29.6%
COc1cc(C(=O)NCC2(N(C)C)CCCCC2)ccc1OC(F)F | inactive: 13.4%
CCOC(=O)N1CCC(Nc2cccc(C)c2)CC1 | inactive: 16.5%
COc1ccc(NC2CCN(CCc3ccccc3)CC2)c(OC)c1 | inactive: -21.3%
CCOC(=O)N1CCC(Nc2ccc(F)cc2)CC1 | inactive: 14.2%
O=C(NCC1(N2CCCCC2)CCCCC1)c1ccc(F)cc1 | inactive: 4.99%
O=P1(N(CCCl)CCCl)SCCCS1 | inactive: -21.2%
